Consider two substances from patent publication US20080075767A1, “IBUPROFEN-CONTAINING LIQUID FILLED HARD CAPSULES” (priority 2006, published 2008).

The nature of series [1]: Ibuprofen lysinate vehicle screening.
Series [2] is described as follows: Screening for ibuprofen solubility in different vehicles (steps T1-T3). The conditions noted are these: for Observation: amount in cell beside. An excerpt:
Different solvent systems such as oils and medium chain triglycerides, solubilizing agents, emulsifying agents (self-emulsifying) and surfactants for the liquid filled capsules were screened for their effectiveness in solubilizing ibuprofen and are listed in Tables 5 to 6.
The screening method involved the following steps:
2. Step T2: the sample was heated using a hot plate and stirrer to facilitate ibuprofen solubility in the vehicle and the samples were left overnight.
3. […] Additional ibuprofen was added by reheating selected T2 solutions until re-crystallization or precipitation was observed.
Observations on whether ibuprofen appeared as dissolved, a suspension (fine suspension) or crystallized (agglomerates) were reported.

A short description of series [3]: Ibuprofen vehicle screening (single excipients). Type of series: physicochemical. The procedure: Initially, ibuprofen United States Pharmacopeia grade (USP) powder was mixed at room temperature with individual excipients being considered as shown in Table 1. Ibuprofen was incrementally added and mixed until a precipitate was observed. […] Observations were made daily to determine if the mixture would remain a solution or precipitate out within an approximately 24 hour period.

Regarding Hexylene Glycol, the “Approximate Percentage of IBL salt added in powder form to excipient and heated” value in series [1] (ibuprofen lysinate (IBL) in the excipient named, outcome in Comments cell beside) is 2.4%. Moreover, the Observation entry is reported as “Dissolved (T1)” in series [2] (step T1: ibuprofen in 10.0 g vehicle, mixed at room temperature); “Dissolved (T2)” in series [2] (step T2: heated on hot plate with stirring, left overnight); “Crystallized (T3)” in series [2] (step T3: additional ibuprofen with heating, observed approx. 24 hours). Moreover, the “Amt of API added” value in series [2] (step T1: ibuprofen into 10.0 g vehicle at room temperature, outcome in Observation cell beside) was found to be 4250.0 mg; in series [2] (step T2: heated on hot plate with stirring, left overnight, 10.0 g vehicle, outcome in cell beside) it was 5250.0 mg; in series [2] (step T3: additional ibuprofen with heating, observed approx. 24 hours, 10.0 g vehicle, outcome in cell beside), 10000.0 mg. Also, the “Approx. Percentage of API that Resulted in Precipitate” value in series [3] (ibuprofen USP in the excipient named, precipitate within approx. 24 h after cooling to room temperature, * = close to saturation point, only a few crystals) came out at 50%. The “Approx. Max. Percentage of API in Solution Tested” value in series [3] (ibuprofen USP in the single excipient named, melted in on hot plate, remained in solution approx. 24 h) was found to be 31%.
For Ibuprofen lysinate [reference compound], the “Solubility of ibuprofen lysinate in various vehicles” value in series [1] (mainly anhydrous systems) was “Limited solubility”.
